Measurements reported in patent US6824928B2, “Organic borate compounds and the nonaqueous electrolytes and lithium secondary batteries using the compounds” (Hitachi, Ltd., priority 2000, dated 2004).

Legend:
[1] = Electroconductivity in fluorinated solvent B (HFE7100/DMC 80:20); assay type: physicochemical
[2] = solvent A: PC/DMC 1:2; at the dissolved concentration (about 0.1 M)

Lithium bis-salicylate borate [reference compound]
electroconductivity (result in words) [1]: no electroconductivity has been measurable | electroconductivity of the nonaqueous electrolyte [2]: 0.43 mS/cm
